# scFv variants of Ab-14 (heavy chain) against a SARS-CoV-2 spike peptide

The measurements come from Engelhart et al. 2022 (doi:10.1038/s41597-022-01779-4) through the FLAb antibody collection.

Target peptide (SARS-CoV-2 spike, HR2 region): PDVDLGDISGINAS

Each scFv is VH, a (GGGGS)3 linker, VL, as in the parent Ab-14, and differs from it in the CDRs of the heavy chain only.
VH: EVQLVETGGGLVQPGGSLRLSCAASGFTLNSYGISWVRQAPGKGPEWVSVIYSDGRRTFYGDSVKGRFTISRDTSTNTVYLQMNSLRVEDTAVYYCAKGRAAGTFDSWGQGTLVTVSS
VL: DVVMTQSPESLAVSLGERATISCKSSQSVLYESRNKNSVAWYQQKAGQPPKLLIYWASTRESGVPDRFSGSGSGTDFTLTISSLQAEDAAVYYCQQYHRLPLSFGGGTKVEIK

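Phage display of a naive human antibody library on the peptide gave the parent. Library AAYL49 holds single substitutions and randomly drawn double and triple substitutions in the CDRs. AlphaSeq pools MATa yeast showing the antibodies with MATalpha yeast showing the peptide. The frequency of each diploid, read from paired DNA barcodes, reflects how well the two displayed proteins bind. Each replicate has its own calibration line, from reference interactions of the BCL2 family. Each pool was mated in three replicate cultures.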

Variants are written as CDR1, CDR2 and CDR3 of the heavy chain (limits as in the source). Parent: GFTLNSYGIS, VIYSDGRRTFYGDSVK, GRAAGTFDS. Values are apparent Kd, the geometric mean of the replicates that gave a signal; lower means stronger binding. An entry "not detected" has no value in the source: the pair was not observed among the diploids in any replicate. This suggests poor binding but is not conclusive. Empty control strains, which show no peptide, gave a signal in 15% of pairings with library AAYL49; the median was 11 µM and 95% of these signals were weaker than 680 nM. No background was subtracted.

CDR-H1,CDR-H2,CDR-H3,Kd,detected
GFTLNSDGIS,VALSDGRRTFYGDSVK,GRAAGTFDS,not detected,0 of 3
GFTLNSYGSS,VIYSIGRRTFYGDSVK,GRAAPTFDS,11 µM,3 of 3
GFTLNSYGFS,VIYSDGRRTFYGDSVK,GEAAGTFDS,not detected,0 of 3
GMTLNSYGIS,VIYSDGRRTFYGDSVK,GRAMGTFCS,280 nM,3 of 3
GFTLNSYGIS,VIYSDERDTFYGDSVD,GRAAGTFDS,not detected,0 of 3
GFTLNVYGIS,VIYSDGRRTFYGDSVH,GEAAGTFDS,not detected,0 of 3
GFTLNSYGIS,VIYYDGRDTFYGDSVK,GRAARTFDS,140 µM,1 of 3
GFTLNSYWIS,VIYSDHRRGFYGDSVK,GRAAGTFDS,not detected,0 of 3
GTTLNFYGIS,VIYSDGRRTFYGDSVK,GRAIGTFDS,not detected,0 of 3
GFTLNSYGIS,VKYGDGRRTFYEDSVK,GRAAGTFDS,320 µM,1 of 3
GFTENSYGIS,VIYSDGRRTFYGDSVK,NWAAGTFDS,250 µM,1 of 3
GFTLNSYGIS,VIYSDGIRTFYGDSVK,GRASGTFDS,210 nM,3 of 3
GFTLNSYGIE,KIYSDGRRTFYGDSVK,GRAMGTFDS,not detected,0 of 3
GFTLNSQGIS,EIYSDGRRTFYGDSVK,GSAAGTFDS,not detected,0 of 3
GFTLNSYGVS,VIYSDGRRTFYGDSVE,GRAEGTFDS,not detected,0 of 3
GFTLNSYGIS,VIYSDGRRTFYPDPDK,GRAAGTFDS,9.2 µM,1 of 3
GFTLNSYHIS,VIYSDASRTFYGDSVK,GRAAGTFDS,not detected,0 of 3
GFCLTSYGIS,VIYSDGHRTFYGDSVK,GRAAGTFDS,60 nM,3 of 3
GFTLNSYGIL,VIWSDGRRTFYGDSVK,GEAAGTFDS,not detected,0 of 3
GFTLNSYGIS,VIYSDRRRTFSGCSVK,GRAAGTFDS,not detected,0 of 3
GFTLNSYGVS,VIYSDGRFTFYGDDVK,GRAAGTFDS,32 µM,2 of 3
KFTLNEYGIS,VIYSDGRRTFYGDSVK,SRAAGTFDS,not detected,0 of 3
DFTLNSYGIS,VIYSDMRRTFYGDSVK,TRAAGTFDS,28 µM,1 of 3
GFTLNSYGIS,VIYSDSRRTFYGDSAK,GRATGTFDS,72 µM,2 of 3
GFTTNSYDIS,VIYSDGRRTFYGDSVK,GRAAGTFKS,27 µM,1 of 3
GFTSNSYGIS,VGYSDGRRTFYGDSVK,GRAEGTFDS,not detected,0 of 3
GFTLNSYGIS,VIYLDGRRYFMGDSVK,GRAAGTFDS,not detected,0 of 3
TFTLNSYGAS,VIYSDGRRTFYGDSVK,GTAAGTFDS,16 µM,1 of 3
GFTLNSYGIS,VIYFDGPRTFTGDSVK,GRAAGTFDS,not detected,0 of 3

Second part, the sequence after the result:

Kd,detected,CDR-H1,CDR-H2,CDR-H3
190 µM,2 of 3,GFTLNSYGIS,VIYSDGRDTQYGDSVK,CRAAGTFDS
not detected,0 of 3,GFTLNIYGIS,VIYSMGRRTFYSDSVK,GRAAGTFDS
not detected,0 of 3,GFRGNSYGIS,VIYSDGRRTFYGDSVK,MRAAGTFDS
120 nM,3 of 3,GFTLNSYGFS,VIYSDGRRCFYGDEVK,GRAAGTFDS
48 µM,1 of 3,GFTLNSYGIA,VQYMDGRRTFYGDSVK,GRAAGTFDS
not detected,0 of 3,GFTLNSYGIS,VIYSRGRRTFYGDSVG,GRAVGTFDS
22 µM,2 of 3,GFTLNSYGIS,VIYVDGRRTFYGGSVK,GRAAATFDS
2.4 µM,3 of 3,GFTLMSYGIS,VIYSDGRRTFTGDSVK,GRAAGTFDS
not detected,0 of 3,GFTLNSYGVS,VIYSDGRRPFYGDSVK,CRAAGTFDS
not detected,0 of 3,GQTLNSYGIS,VIYSDCYRTFYGDSVK,GRAAGTFDS
not detected,0 of 3,GLTLNSYGIS,VIYSDGRRTFGGDWVK,GRAAGTFDS
33 µM,1 of 3,YFTLNSYGIS,VIYSDGRRTFYGDSVK,GRAAGGFKS
not detected,0 of 3,GFNLNSYGIS,VIYSDGRRTFEGDSVK,GRAAGDFDS
81 µM,1 of 3,GFTLNSYGIS,VIYSDGRRTFYMISVK,ERAAGTFDS
not detected,0 of 3,GFTLNSYGIS,VIYCDGRRTFYGDSVK,TRAAGTFDS
not detected,0 of 3,GFTLQSYGIS,VIRSDGRRTFYGDSVK,GRAAGQFDS
not detected,0 of 3,GFTLNSYGIS,VIYSKGRRTFYGDSVK,GRAAGSFDS
not detected,0 of 3,GFTLNSYGSS,VIYSDGRRTFYGDSVK,GRAAGTFDQ
not detected,0 of 3,GFTLTSYGIS,VMYSDGRRTFYGDSKK,GRAAGTFDS
8.0 µM,1 of 3,GFTLNSYGIS,VIYSFGRRTFYIDSVK,GRAAGEFDS
not detected,0 of 3,GFTLNAYGIE,VIYSDGRRTFYGDSVK,GRAAGTFVS
300 nM,1 of 3,GSTLNSYGIS,VIYSDGKRTFYGDSVK,GRACGTFDS
55 nM,3 of 3,GFTLNSYGIV,VIYSDGRRTFYGDSVK,GRAAGTFHT
110 µM,3 of 3,GFTLNSYGIS,VIYSDGRRTFYGDSYK,GDAAGPFDS
170 µM,1 of 3,DFTLNSYGIS,VIYSDGRRTPYGDSYK,GRAAGTFDS
580 µM,1 of 3,GFTLNSYGIP,VIYSDGRRTFYMLSVK,GRAAGTFDS
38 nM,3 of 3,GFPLNTYGIS,VIYSDGRRTFYGDSVK,GRAAGTIDS
6.6 µM,1 of 3,GFTLNSYCIS,VIYSDYRRTFYGDSVK,GRAAGTFDS
13 µM,1 of 3,GFTLNSYGIM,VIYSDGRRTFYGDSVG,GRAAGTFFS
not detected,0 of 3,GFTLNSYGII,VIYSDGRRTFYGDSVK,ARAAGTFDS

Repeated from above, the 8 best binders with a signal in all replicates:

| CDR-H1 | CDR-H2 | CDR-H3 | Kd | detected |
|---|---|---|---|---|
| GFPLNTYGIS | VIYSDGRRTFYGDSVK | GRAAGTIDS | 38 nM | 3 of 3 |
| GFTLNSYGIV | VIYSDGRRTFYGDSVK | GRAAGTFHT | 55 nM | 3 of 3 |
| GFCLTSYGIS | VIYSDGHRTFYGDSVK | GRAAGTFDS | 60 nM | 3 of 3 |
| GFTLNSYGFS | VIYSDGRRCFYGDEVK | GRAAGTFDS | 120 nM | 3 of 3 |
| GFTLNSYGIS | VIYSDGIRTFYGDSVK | GRASGTFDS | 210 nM | 3 of 3 |
| GMTLNSYGIS | VIYSDGRRTFYGDSVK | GRAMGTFCS | 280 nM | 3 of 3 |
| GFTLMSYGIS | VIYSDGRRTFTGDSVK | GRAAGTFDS | 2.4 µM | 3 of 3 |
| GFTLNSYGSS | VIYSIGRRTFYGDSVK | GRAAPTFDS | 11 µM | 3 of 3 |